Legend:
NCI-H522 = test: NCI in vitro anti-cancer activity, Non-Small Cell Lung Cancer; settings: Table 29, Non-Small Cell Lung Cancer
A549/ATCC = test: as above; settings: Table 29, Non-Small Cell Lung Cancer
NCI-H23 = test: as above; settings: Table 29, Non-Small Cell Lung Cancer
HOP-92 = test: as above; settings: Table 29, Non-Small Cell Lung Cancer
NCI-H226 = test: as above; settings: Table 29, Non-Small Cell Lung Cancer
NCI-H460 = test: as above; assay type: cell-based; settings: Table 29, Non-Small Cell Lung Cancer
NCI/ADR-RES = test: NCI in vitro anti-cancer activity, breast cancer
PC-3 = test: NCI in vitro anti-cancer activity, Prostate Cancer; settings: Table 29, Prostate Cancer
DU-145 = test: NCI in vitro anti-cancer activity, Prostate Cancer; settings: Table 29, Prostate Cancer
K-562 = test: NCI in vitro anti-cancer activity; settings: Table 29, Leukemia
SF-268 = test: NCI in vitro anti-cancer activity, CNS Cancer; settings: Table 29, CNS Cancer
SF-295 = test: NCI in vitro anti-cancer activity, CNS Cancer; settings: Table 29, CNS Cancer
SNB-19 = test: NCI in vitro anti-cancer activity, CNS Cancer; settings: Table 29, CNS Cancer
SNB-75 = test: NCI in vitro anti-cancer activity, CNS Cancer; settings: Table 29, CNS Cancer, SNB-75
SF-539 = test: NCI in vitro anti-cancer activity, CNS Cancer; settings: Table 29, CNS Cancer
U251 = test: NCI in vitro anti-cancer activity, CNS Cancer; settings: Table 29, CNS Cancer
HT29 = test: NCI in vitro anti-cancer activity, Colon Cancer; settings: Table 29, Colon Cancer
COLO 205 = test: NCI in vitro anti-cancer activity, Colon Cancer; settings: Table 29, Colon Cancer
KM12 = test: NCI in vitro anti-cancer activity, Colon Cancer; settings: Table 29, Colon Cancer
HCT-15 = test: NCI in vitro anti-cancer activity, Colon Cancer; settings: Table 29, Colon Cancer
HCT-116 = test: NCI in vitro anti-cancer activity, Colon Cancer; settings: Table 29, Colon Cancer
HCC-2998 = test: NCI in vitro anti-cancer activity, Colon Cancer; settings: Table 29, Colon Cancer
SW-620 = test: NCI in vitro anti-cancer activity, Colon Cancer; settings: Table 29, Colon Cancer
SK-MEL-5 = test: NCI in vitro anti-cancer activity, Melanoma; assay type: cell-based; settings: Table 29, Melanoma
IGROV1 = test: NCI in vitro anti-cancer activity, Ovarian Cancer; settings: Table 29, Ovarian Cancer
OVCAR-5 = test: NCI in vitro anti-cancer activity, Ovarian Cancer; settings: Table 29, Ovarian Cancer
SK-OV-3 = test: NCI in vitro anti-cancer activity, Ovarian Cancer; settings: Table 29, Ovarian Cancer
OVCAR-8 = test: NCI in vitro anti-cancer activity, Ovarian Cancer; settings: Table 29, Ovarian Cancer
OVCAR-4 = test: NCI in vitro anti-cancer activity, Ovarian Cancer; settings: Table 29, Ovarian Cancer
OVCAR-3 = test: NCI in vitro anti-cancer activity, Ovarian Cancer; settings: Table 29, Ovarian Cancer
A498 = test: NCI in vitro anti-cancer activity, renal cancer; settings: Table 29, Renal Cancer
LOX IMVI = test: NCI in vitro anti-cancer activity, Melanoma; settings: Table 29, Melanoma
UACC-257 = test: NCI in vitro anti-cancer activity, Melanoma; settings: Table 29, Melanoma
UACC-62 = test: NCI in vitro anti-cancer activity, Melanoma; settings: Table 29, Melanoma
SK-MEL-2 = test: NCI in vitro anti-cancer activity, Melanoma; settings: Table 29, Melanoma
MALME-3M = test: NCI in vitro anti-cancer activity, Melanoma; settings: Table 29, Melanoma
M14 = test: NCI in vitro anti-cancer activity, Melanoma; settings: Table 29, Melanoma
SK-MEL-28 = test: NCI in vitro anti-cancer activity, Melanoma; settings: Table 29, Melanoma
MDA-MB-435 = test: NCI in vitro anti-cancer activity, Breast Cancer; settings: Table 29, Breast Cancer
HS 578T = test: NCI in vitro anti-cancer activity, Breast Cancer; settings: Table 29, Breast Cancer
BT-549 = test: NCI in vitro anti-cancer activity, Breast Cancer; settings: Table 29, Breast Cancer
MCF7 = test: NCI in vitro anti-cancer activity, Breast Cancer; settings: Table 29, Breast Cancer
T-47D = test: NCI in vitro anti-cancer activity, Breast Cancer; settings: Table 29, Breast Cancer
MDA-MB-231/ATCC = test: NCI in vitro anti-cancer activity, Breast Cancer; settings: Table 29, Breast Cancer
MDA-N = test: NCI in vitro anti-cancer activity, Breast Cancer; settings: Table 29, Breast Cancer
SR = test: NCI in vitro anti-cancer activity, Leukemia; settings: Table 29, Leukemia
HL-60 (TB) = test: NCI in vitro anti-cancer activity, Leukemia; settings: Table 29, Leukemia
CCRF-CEM = test: NCI in vitro anti-cancer activity, Leukemia
RPMI-8226 = test: NCI in vitro anti-cancer activity, Leukemia; settings: Table 29, Leukemia
MOLT-4 = test: NCI in vitro anti-cancer activity, Leukemia; settings: Table 29, Leukemia
CAKI-1 = test: NCI in vitro anti-cancer activity, Renal Cancer; settings: Table 29, Renal Cancer
ACHN = test: NCI in vitro anti-cancer activity, Renal Cancer; settings: Table 29, Renal Cancer
SN12C = test: NCI in vitro anti-cancer activity, Renal Cancer; settings: Table 29, Renal Cancer
TK-10 = test: NCI in vitro anti-cancer activity, Renal Cancer; settings: Table 29, Renal Cancer
RXF 393 = test: NCI in vitro anti-cancer activity, Renal Cancer
786-0 = test: NCI in vitro anti-cancer activity, Renal Cancer; settings: Table 29, Renal Cancer
UO-31 = test: NCI in vitro anti-cancer activity, Renal Cancer; settings: Table 29, Renal Cancer
RL DHFR = RL DHFR (Rattus norvegicus, UniProt Q920D2); test: Inhibition of DHFR from rat liver; assay type: biochemical; settings: read-out: Inhibitory Concentrations (IC50) RL DHFR; Table 26
FaDu = test: Growth inhibition of FaDu human squamous carcinoma cell line; assay type: cell-based; settings: Table 15, continuous (120 hours) exposure; for EC50: read-out: Growth inhibition EC50, FaDu
L. casei TS = L. casei TS (Lacticaseibacillus casei, UniProt P00469); test: Inhibition of thymidylate synthase (TS), L. casei; assay type: biochemical, Lactobacillus casei; settings: Table 13; at the concentration given
[1] = target: E-coli thymidylate synthase (ecTS) (Escherichia coli, UniProt P0A884); test: Inhibition of E. coli thymidylate synthase; assay type: biochemical; settings: Table 13; at the concentration given
EKVX = test: NCI in vitro anti-cancer activity, Non-Small Cell Lung Cancer; settings: Table 29, Non-Small Cell Lung Cancer
[2] = target: CCRF-CEM human leukemia cell folylpolyglutamate synthetase (Homo sapiens, UniProt Q05932); test: Substrate activity for CCRF-CEM folylpolyglutamate synthetase; assay type: biochemical; settings: Table 21
[3] = Table 29, Breast Cancer, NCI/ADRRES
[4] = Table 29, Renal Cancer, RXF 393

Sequences of proteins named here, by UniProt entry; tags and fusion partners are left off. Residues count along the entry.
UniProt Q920D2, whole entry: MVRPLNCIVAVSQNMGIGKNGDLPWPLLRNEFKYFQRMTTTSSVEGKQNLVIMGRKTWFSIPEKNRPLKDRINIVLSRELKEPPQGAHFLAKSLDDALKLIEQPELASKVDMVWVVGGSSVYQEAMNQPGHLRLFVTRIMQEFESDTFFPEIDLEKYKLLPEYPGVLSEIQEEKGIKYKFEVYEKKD
UniProt P00469, whole entry: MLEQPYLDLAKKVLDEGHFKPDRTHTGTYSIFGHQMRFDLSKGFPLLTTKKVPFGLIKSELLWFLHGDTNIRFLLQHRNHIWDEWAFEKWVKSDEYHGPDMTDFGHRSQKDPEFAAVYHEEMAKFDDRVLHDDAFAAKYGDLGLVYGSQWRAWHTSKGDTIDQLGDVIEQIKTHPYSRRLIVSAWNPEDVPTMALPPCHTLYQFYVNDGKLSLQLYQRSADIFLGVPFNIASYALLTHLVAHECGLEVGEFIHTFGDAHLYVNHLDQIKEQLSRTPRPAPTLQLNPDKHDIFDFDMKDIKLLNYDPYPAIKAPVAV
UniProt P0A884, whole entry: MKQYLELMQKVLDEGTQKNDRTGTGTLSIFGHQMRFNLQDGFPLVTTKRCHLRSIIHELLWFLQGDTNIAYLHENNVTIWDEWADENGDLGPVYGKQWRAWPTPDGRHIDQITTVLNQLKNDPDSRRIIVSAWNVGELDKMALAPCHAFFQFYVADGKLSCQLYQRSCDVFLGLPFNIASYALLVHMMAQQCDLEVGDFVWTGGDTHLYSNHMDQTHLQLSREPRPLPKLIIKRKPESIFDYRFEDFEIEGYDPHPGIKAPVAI
UniProt Q05932, 43-587 limits assumed: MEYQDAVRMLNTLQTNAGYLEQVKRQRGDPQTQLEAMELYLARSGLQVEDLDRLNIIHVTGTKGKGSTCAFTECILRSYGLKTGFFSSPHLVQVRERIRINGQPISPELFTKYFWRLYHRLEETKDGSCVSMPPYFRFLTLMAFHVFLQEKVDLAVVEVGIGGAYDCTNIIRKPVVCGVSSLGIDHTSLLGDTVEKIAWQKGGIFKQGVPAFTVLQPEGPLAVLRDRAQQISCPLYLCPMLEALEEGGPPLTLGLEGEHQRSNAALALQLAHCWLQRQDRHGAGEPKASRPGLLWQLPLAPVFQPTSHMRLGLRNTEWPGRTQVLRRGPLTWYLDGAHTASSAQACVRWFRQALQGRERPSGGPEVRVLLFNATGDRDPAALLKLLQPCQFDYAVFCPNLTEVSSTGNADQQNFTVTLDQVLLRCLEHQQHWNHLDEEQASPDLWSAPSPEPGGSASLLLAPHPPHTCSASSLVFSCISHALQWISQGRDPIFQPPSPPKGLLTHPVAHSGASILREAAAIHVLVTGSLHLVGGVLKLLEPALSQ

## COc1ccccc1CCc1c[nH]c2nc(N)nc(C)c12
NCI-H522
  GI50: 33.8 µM
A549/ATCC
  GI50: 21.2 µM
NCI-H23
  GI50: 36.8 µM
HOP-92
  GI50: 40 µM
NCI-H226
  GI50: 35.4 µM
NCI-H460
  GI50: 13.9 µM
NCI/ADR-RES; [3]
  GI50: 11 µM
PC-3
  GI50: 27.8 µM
DU-145
  GI50: 55.3 µM
K-562
  GI50: 24.3 µM
SF-268
  GI50: 45.5 µM
SF-295
  GI50: 35.1 µM
SNB-19
  GI50: 70.4 µM
SNB-75
  GI50: 36.2 µM
SF-539
  GI50: 38 µM
U251
  GI50: 29.5 µM
HT29
  GI50: 38.4 µM
COLO 205
  GI50: 59.9 µM
KM12
  GI50: 34.7 µM
HCT-15
  GI50: 20.4 µM
HCT-116
  GI50: 31.9 µM
HCC-2998
  GI50: 17.4 µM
SW-620
  GI50: 73.4 µM
SK-MEL-5
  GI50: 29.5 µM
IGROV1
  GI50: 36.3 µM
OVCAR-5
  GI50: > 100 µM
SK-OV-3
  GI50: 76.8 µM
OVCAR-8
  GI50: 40.2 µM
OVCAR-4
  GI50: 47.9 µM
OVCAR-3
  GI50: 83.3 µM
A498
  GI50: 13.4 µM
LOX IMVI
  GI50: 41 µM
UACC-257
  GI50: 38.1 µM
UACC-62
  GI50: 32 µM
SK-MEL-2
  GI50: > 100 µM
MALME-3M
  GI50: 46.9 µM
M14
  GI50: 54 µM
SK-MEL-28
  GI50: > 100 µM
MDA-MB-435
  GI50: 55.9 µM
HS 578T
  GI50: 22.3 µM
BT-549
  GI50: 18.6 µM
MCF7
  GI50: 33.1 µM
T-47D
  GI50: 31 µM
MDA-MB-231/ATCC
  GI50: 83.1 µM
MDA-N
  GI50: 46.5 µM
SR
  GI50: 24.3 µM
HL-60 (TB)
  GI50: 23.8 µM
CCRF-CEM; Table 29, Leukemia, CCRF-CEM
  GI50: 24.2 µM
RPMI-8226
  GI50: 76.7 µM
MOLT-4
  GI50: 19.3 µM
CAKI-1
  GI50: 55.7 µM
ACHN
  GI50: 37.5 µM
SN12C
  GI50: 58 µM
TK-10
  GI50: 55.1 µM
RXF 393; [4]
  GI50: 30.2 µM
786-0
  GI50: 36.3 µM
UO-31
  GI50: 29.4 µM
RL DHFR
  IC50: 1.8 µM

## Cc1[nH]c2nc(N)[nH]c(=O)c2c1Sc1ccc(Cl)c(Cl)c1
FaDu
  Growth inhibition EC50, FaDu: insoluble

## COc1ccc(Sc2c(C)[nH]c3nc(N)[nH]c(=O)c23)cc1OC
L. casei TS
  % in parentheses after the > value, L. Casei TS: 33%
FaDu
  EC50: > 10 µM
[1]
  % in parentheses after the > value, E. Coli TS: 30%

## Cc1nc(N)nc2c1c(CCc1ccccc1)cn2Cc1ccccc1
NCI-H522
  GI50: > 100 µM
A549/ATCC
  GI50: > 100 µM
NCI-H23
  GI50: > 100 µM
HOP-92
  GI50: 16 µM
NCI-H226
  GI50: > 100 µM
EKVX
  GI50: 6.45 µM
NCI-H460
  GI50: > 100 µM
NCI/ADR-RES; NCI/ADR-RES breast cancer cell line
  GI50: very selective
NCI/ADR-RES; [3]
  GI50: 2.23 µM
PC-3
  GI50: 38.1 µM
DU-145
  GI50: > 100 µM
K-562
  GI50: > 100 µM
SF-268
  GI50: > 100 µM
SF-295
  GI50: > 100 µM
SNB-19
  GI50: > 100 µM
SNB-75
  GI50: > 100 µM
SF-539
  GI50: > 100 µM
U251
  GI50: 12.2 µM
HT29
  GI50: > 100 µM
COLO 205
  GI50: > 100 µM
KM12
  GI50: > 100 µM
HCT-15
  GI50: 25.2 µM
HCT-116
  GI50: > 100 µM
HCC-2998
  GI50: > 100 µM
SW-620
  GI50: 41.6 µM
SK-MEL-5
  GI50: > 100 µM
IGROV1
  GI50: > 100 µM
OVCAR-5
  GI50: > 100 µM
SK-OV-3
  GI50: > 100 µM
OVCAR-8
  GI50: > 100 µM
OVCAR-4
  GI50: 56.3 µM
OVCAR-3
  GI50: > 100 µM
A498
  GI50: 14.3 µM
LOX IMVI
  GI50: > 100 µM
UACC-257
  GI50: 31.4 µM
UACC-62
  GI50: 79.4 µM
SK-MEL-2
  GI50: > 100 µM
MALME-3M
  GI50: > 100 µM
M14
  GI50: > 100 µM
SK-MEL-28
  GI50: 39.3 µM
MDA-MB-435
  GI50: > 100 µM
HS 578T
  GI50: > 100 µM
BT-549
  GI50: > 100 µM
MCF7
  GI50: 50 µM
T-47D
  GI50: 0.504 µM
MDA-MB-231/ATCC
  GI50: 52.2 µM
MDA-N
  GI50: > 100 µM
SR
  GI50: > 100 µM
HL-60 (TB)
  GI50: 20.1 µM
CCRF-CEM; CCRF-CEM leukemia cell line
  GI50: very selective
CCRF-CEM; Table 29, Leukemia, CCRF-CEM
  GI50: 4.72 µM
RPMI-8226
  GI50: > 100 µM
MOLT-4
  GI50: > 100 µM
CAKI-1
  GI50: 87.9 µM
ACHN
  GI50: 44 µM
SN12C
  GI50: > 100 µM
TK-10
  GI50: > 100 µM
RXF 393; RXF 393, Renal Cancer
  GI50: very selective
RXF 393; [4]
  GI50: 4.81 µM
786-0
  GI50: > 100 µM
UO-31
  GI50: > 100 µM
RL DHFR
  IC50: 97 µM

## Nc1nc(N)c2c3c(oc2n1)CN(Cc1ccc(C(=O)N[C@@H](CCC(=O)O)C(=O)O)cc1)CC3
[2]
  Vmax,rel: 0.29 ± 0.05
[2]; substrate for FPGS
  Km: 6.2 µM

## Cc1[nH]c2nc(N)[nH]c(=O)c2c1Sc1ccccc1
L. casei TS
  % in parentheses after the > value, L. Casei TS: 0%
FaDu
  EC50: > 10 µM
[1]
  % in parentheses after the > value, E. Coli TS: >30 (30%)

Source: patent publication US6962920B2, “Pyrimidine derivatives and methods of making and using these derivatives” (Duquesne University of the Holy Ghost, priority 1992, dated 2005)
